Inhibition data for two compounds are collected here from ChEMBL document CHEMBL6071213, “Bicyclic Inhibitors of Branched-Chain α-Keto Acid Dehydrogenase Kinase (BDK) with In Vivo Activity” (ACS Med Chem Lett, 2024).

Assay [1] has as its target Branched-chain alpha-ketoacid dehydrogenase kinase (Mus musculus) (UniProt O55028). The conditions noted are these: Heart, dose 60.0 mg/kg, route ip, time 3.0 day.
Assay [2] has the same target. The conditions noted are these: Kidney, dose 60.0 mg/kg, route ip, time 3.0 day.
Assay [3] shares this target. The conditions noted are these: Liver, dose 60.0 mg/kg, route ip, time 3.0 day.
Assay [4] shares this target. Conditions: Heart, dose 60.0 mg/kg, route ip, time 3.0 day. This is another data set of the same source.
For assay [5] the target is unchanged. Conditions: Kidney, dose 60.0 mg/kg, route ip, time 3.0 day. The source holds these as a separate data set.
Assay [6] shares this target. The conditions noted are these: Liver, dose 60.0 mg/kg, route ip, time 3.0 day. The source holds these as a separate data set.
Assay [7] shares this target. Conditions: Liver, dose 20.0 mg/kg, route ip, time 3.0 day.
Assay [8] has the same target. Conditions: Heart, dose 20.0 mg/kg, route ip, time 3.0 day.
Assay [9] has the same target. The conditions noted are these: Kidney, dose 20.0 mg/kg, route ip, time 3.0 day.

Activity calls are given as the source filed them. The rule behind the calls is not given here.

In the case of `O=C(Nc1nc(-c2ccc(F)cc2F)cs1)[C@H]1[C@H](C(=O)O)[C@H]2C=C[C@@H]1C2`, the inhibition in [1] and in assay [5] was 50% throughout. Further, the inhibition entry in assay [2], in assay [4] and in assay [6] was “inactive” in each case. Moreover, the inhibition – broadly, how much of the control response was suppressed – in assay [3] is “Active”.
For the compound `O=C(O)c1sc2cc(Cl)ccc2c1Cl`, the inhibition entry in assay [7] was “Active”. Also, the inhibition in assay [8] and in [9] was 50% each time.
